Experimental data taken from patent publication US20130045500A1, “CELL EVALUATION METHOD” (NATIONAL CANCER CENTER, priority 2011, published 2013).

System: human breast-cancer-derived cell line BT474
Experiment: Spheroid formation on NanoCulture plate observed by time-lapse microscope
Assay type: cell-based
Conditions: 0, 0.1, 1.0, 10 μg/mL, day zero to seventh day after medicine was added
Procedure: A human breast-cancer-derived cell line BT474 was suspended in a culture medium (NCM-M made by SCIVAX Co., Ltd.), and seeded on a NanoCulture (registered mark) plate (made by SCIVAX Co., Ltd., 96-well plate, material of concavo-convex structure surface: cyclic-olefin polymer (COP), planar shape of concavo-convex structure: regular hexagon, width between unit structures (line width): 700 nm, minimum internal diameter of unit structure: 3 μm, and depth: 1 μm) at 1×10^4 cells/well, and incubated at 37° C. and 5% CO2.
The effect of the medicine on the formation of spheroids in each concentration from the day zero to the seventh day after the medicine was added were observed through a time-lapse microscope, and the image pickup results are shown in FIG. 2.
Furthermore, the image of the change in the number of spheroids in each concentration from the day zero to the seventh day after the medicine was added was picked up using the time-lapse microscope, and the number of the spheroids was counted and taken as a relative value, and the results are shown in FIG. 4.

trastuzumab was tested. Which “change in the number of spheroids” value did it give?
The value was “the number of the spheroids changes depending on the medicine concentration”.
